Literature values as cited in publication PMC10531186.

Target: chymotrypsin (Bos taurus) (UniProt P00766)
Experiment: given as Ka

Kd: 58.8 nM
Substance: BPTI (from UniProt P00974)
